# From publication PMC4286194 (Biochemical Journal, 2015)
# What was measured:
# SIK3 = SIK3 (Homo sapiens, UniProt Q9Y2K2); assay: Kinase profiling; details: read-out: % activity remaining
# AMPK = assay: Kinase profiling; assay type: biochemical; details: 1 µM
# SYK = SYK (Homo sapiens, UniProt P43405); assay: Kinase profiling; details: read-out: % activity remaining
# ROCK 2 = ROCK 2 (Rattus norvegicus, UniProt Q62868); assay: Kinase profiling; details: read-out: % activity remaining
# JNK3 = JNK3 (Homo sapiens, UniProt P53779); assay: biochemical; details: read-out: % activity remaining
# WNK1 = WNK1 (Homo sapiens, UniProt Q9H4A3); assay: biochemical; details: read-out: % activity remaining
# NEK2a = NEK2a (Homo sapiens, UniProt P51955); assay: biochemical; details: read-out: % activity remaining
# PAK2 = PAK2 (Homo sapiens, UniProt Q13177); assay: biochemical; details: read-out: % activity remaining
# PIM1 = PIM1 (Homo sapiens, UniProt P11309); assay: biochemical; details: read-out: % activity remaining
# DYRK2 = DYRK2 (Homo sapiens, UniProt Q92630); assay: biochemical; details: read-out: % activity remaining
# p38 delta MAPK = p38 delta MAPK (Homo sapiens, UniProt O15264); assay: biochemical; details: read-out: % activity remaining
# SRPK1 = SRPK1 (Homo sapiens, UniProt Q96SB4); assay: biochemical; details: read-out: % activity remaining
# MAPKAP-K2 = MAPKAP-K2 (Homo sapiens, UniProt P49137); assay: biochemical; details: read-out: % activity remaining
# TLK1 = TLK1 (Homo sapiens, UniProt Q9UKI8); assay: biochemical; details: read-out: % activity remaining
# JNK1 = JNK1 (Homo sapiens, UniProt P45983); assay: biochemical; details: read-out: % activity remaining
# GSK3 beta = GSK3 beta (Homo sapiens, UniProt P49841); assay: biochemical; details: read-out: % activity remaining
# CK2 = CK2 (Homo sapiens, UniProt P68400); assay: biochemical; details: read-out: % activity remaining
# MARK3 = MARK3 (Homo sapiens, UniProt P27448); assay: biochemical; details: read-out: % activity remaining
# NEK6 = NEK6 (Homo sapiens, UniProt Q9HC98); assay: biochemical; details: read-out: % activity remaining
# CK1 delta = CK1 delta (Homo sapiens, UniProt P48730); assay: biochemical; details: read-out: % activity remaining
# MARK4 = MARK4 (Homo sapiens, UniProt Q96L34); assay: biochemical; details: read-out: % activity remaining
# PAK4 = PAK4 (Homo sapiens, UniProt O96013); assay: biochemical; details: read-out: % activity remaining
# MELK = MELK (Homo sapiens, UniProt Q14680); assay: biochemical; details: read-out: % activity remaining
# ERK8 = ERK8 (Homo sapiens, UniProt Q8TD08); assay: biochemical; details: read-out: % activity remaining
# JNK2 = JNK2 (Homo sapiens, UniProt P45984); assay: biochemical; details: read-out: % activity remaining
# TTK = TTK (Homo sapiens, UniProt P33981); assay: biochemical; details: read-out: % activity remaining
# ERK1 = ERK1 (Homo sapiens, UniProt P27361); assay: biochemical; details: read-out: % activity remaining
# DYRK1A = DYRK1A (Homo sapiens, UniProt Q13627); assay: biochemical; details: read-out: % activity remaining
# PIM3 = PIM3 (Homo sapiens, UniProt Q86V86); assay: biochemical; details: read-out: % activity remaining
# CDK2-Cyclin A = CDK2-Cyclin A (Homo sapiens, UniProt P24941); assay: biochemical; details: read-out: % activity remaining
# OSR1 = OSR1 (Homo sapiens, UniProt O95747); assay: biochemical; details: read-out: % activity remaining
# DAPK1 = DAPK1 (Homo sapiens, UniProt P53355); assay: biochemical; details: read-out: % activity remaining
# MKK6 = MKK6 (Homo sapiens, UniProt P52564); assay: biochemical; details: read-out: % activity remaining
# MST3 = MST3 (Homo sapiens, UniProt Q9Y6E0); assay: biochemical; details: read-out: % activity remaining
# ASK1 = ASK1 (Homo sapiens, UniProt Q99683); assay: biochemical; details: read-out: % activity remaining
# EPH-B1 = EPH-B1 (Homo sapiens, UniProt P54762); assay: biochemical; details: read-out: % activity remaining
# EPH-A4 = EPH-A4 (Homo sapiens, UniProt P54764); assay: biochemical; details: read-out: % activity remaining
# ERK2 = ERK2 (Homo sapiens, UniProt P28482); assay: biochemical; details: read-out: % activity remaining
# MKK1 = MKK1 (Homo sapiens, UniProt Q02750); assay: biochemical; details: read-out: % activity remaining
smiles,measurement,setting,value
"COc1cc(Nc2c(C#N)cnc3cc(OCCCN4CCN(C)CC4)c(OC)cc23)c(Cl)cc1Cl [Bosutinib, bosutinib]",remaining activity at 0.1 µM,SIK3,9%
same,remaining activity at 1 µM,SIK3,2%
same,% activity remaining,AMPK,26 ± 2%
same,remaining activity at 1 µM,SYK,39 ± 1%
Cc1nc(Nc2ncc(C(=O)Nc3c(C)cccc3Cl)s2)cc(N2CCN(CCO)CC2)n1 [Dasatinib],remaining activity at 0.1 µM,ROCK 2,130 ± 10%
same,remaining activity at 1 µM,ROCK 2,132 ± 7%
same,remaining activity at 0.1 µM,JNK3,108%
same,remaining activity at 1 µM,JNK3,113 ± 15%
same,remaining activity at 0.1 µM,WNK1,104 ± 4%
same,remaining activity at 1 µM,WNK1,104 ± 12%
same,remaining activity at 0.1 µM,NEK2a,122 ± 11%
same,remaining activity at 0.1 µM,PAK2,118 ± 2%
same,remaining activity at 1 µM,PAK2,119 ± 12%
same,remaining activity at 0.1 µM,PIM1,90 ± 1%
same,remaining activity at 1 µM,DYRK2,117 ± 9%
same,remaining activity at 0.1 µM,p38 delta MAPK,118 ± 17%
same,remaining activity at 1 µM,p38 delta MAPK,133 ± 1%
same,remaining activity at 0.1 µM,SRPK1,104 ± 9%
same,remaining activity at 0.1 µM,MAPKAP-K2,114 ± 4%
same,remaining activity at 1 µM,MAPKAP-K2,111 ± 7%
same,remaining activity at 1 µM,TLK1,124%
same,remaining activity at 0.1 µM,JNK1,108 ± 4%
same,remaining activity at 1 µM,JNK1,121 ± 9%
same,remaining activity at 1 µM,GSK3 beta,121 ± 12%
same,remaining activity at 1 µM,CK2,80 ± 28%
same,remaining activity at 1 µM,MARK3,104 ± 5%
same,remaining activity at 0.1 µM,NEK6,113 ± 4%
same,remaining activity at 1 µM,NEK6,123 ± 6%
same,remaining activity at 0.1 µM,CK1 delta,113 ± 4%
same,remaining activity at 1 µM,CK1 delta,124 ± 1%
same,remaining activity at 1 µM,MARK4,115 ± 24%
same,remaining activity at 0.1 µM,PAK4,137 ± 21%
same,remaining activity at 1 µM,PAK4,132 ± 16%
same,remaining activity at 0.1 µM,MELK,112 ± 7%
same,remaining activity at 1 µM,MELK,128 ± 7%
same,remaining activity at 0.1 µM,ERK8,90 ± 14%
same,remaining activity at 1 µM,JNK2,125%
same,remaining activity at 0.1 µM,TTK,104 ± 6%
same,remaining activity at 1 µM,TTK,109 ± 9%
same,remaining activity at 1 µM,ERK1,114 ± 12%
same,% activity remaining,AMPK,120 ± 5%
same,remaining activity at 0.1 µM,DYRK1A,111 ± 4%
same,remaining activity at 1 µM,DYRK1A,126 ± 19%
same,remaining activity at 1 µM,PIM3,108 ± 5%
same,remaining activity at 0.1 µM,CDK2-Cyclin A,116 ± 1%
same,remaining activity at 1 µM,CDK2-Cyclin A,112 ± 1%
same,remaining activity at 0.1 µM,OSR1,100 ± 1%
same,remaining activity at 0.1 µM,DAPK1,126 ± 10%
same,remaining activity at 0.1 µM,MKK6,104 ± 11%
same,remaining activity at 1 µM,MKK6,112 ± 4%
same,remaining activity at 0.1 µM,MST3,114 ± 20%
same,remaining activity at 1 µM,MST3,93 ± 2%
same,remaining activity at 0.1 µM,ASK1,108 ± 7%
same,remaining activity at 1 µM,ASK1,118 ± 7%
same,remaining activity at 0.1 µM,EPH-B1,-1 ± 1%
same,remaining activity at 1 µM,EPH-B1,-1 ± 2%
same,remaining activity at 1 µM,SYK,90%
same,remaining activity at 0.1 µM,EPH-A4,2%
same,remaining activity at 1 µM,EPH-A4,2 ± 2%
same,remaining activity at 0.1 µM,ERK2,93 ± 9%
same,remaining activity at 0.1 µM,MKK1,118 ± 10%
same,remaining activity at 1 µM,MKK1,134 ± 16%
